# Results published in patent publication US20100189719A1 (published 2010).
# Amino acid sequences for entries named in this document (tags omitted). Chains listed by the source or under a name are the forms on record and can include a tag or linker.
# UniProt P15692, other isoform, or with tags, fused parts or gaps: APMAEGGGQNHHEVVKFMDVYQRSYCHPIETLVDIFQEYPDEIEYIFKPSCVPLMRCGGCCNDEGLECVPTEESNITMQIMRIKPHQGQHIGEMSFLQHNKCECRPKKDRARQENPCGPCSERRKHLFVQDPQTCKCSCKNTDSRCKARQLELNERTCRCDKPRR
# Biological target: human VEGF (hVEGF) (human, UniProt P15692 27-191)
# Experiment: competition
binder,measurement,value
"G6 Fab (Fab, V domains shown) VH: EVQLVESGGGLVQPGGSLRLSCAASGFTISDYWIHWVRQAPGKGLEWVAGITPAGGYTYYADSVKGRFTISADTSKNTAYLQMNSLRAEDTAVYYCARFVFFLPYAMDYWGQGTLVTVSS VL: DIQMTQSPSSLSASVGDRVTITCRASQDVSTAVAWYQQKPGKAPKLLIYSASFLYSGVPSRFSGSGSGTDFTLTISSLQPEDFATYYCQQSYTTPPTFGQGTKVEIKR",IC50,2.5 nM
